Only a part of the results on these compounds is given; other tests are left out.
Experiments:
[1] = test system: MCF-7/DOX cells; assay: Antagonism of multidrug resistance (sensitization to doxorubicin) in MCF-7/DOX cells, MDR Ratio; assay type: cell-based, human; conditions: 0-100 μM doxorubicin, 48 h, modifier at concentration alone producing 10% growth inhibition
[2] = test system: MCF-7/DOX cells; assay: Inhibition of MCF-7/DOX cell growth, microtiter methylene blue staining assay, 48 h; assay type: cell-based, human; conditions: read-out: Cell Growth Inhibition IC50 (Table 5), structurally related compounds
[3] = target: Calmodulin (Bos taurus, UniProt P62157); assay: Inhibition of calmodulin-induced activation of phosphodiesterase; conditions: read-out: Calmodulin IC50; inhibition by 50% of calmodulin-induced activation of phosphodiesterase

With `O=c1[nH]c2ccccc2n1C1CCN(CCCCc2ccc(F)cc2)CC1` the “MDR Ratio (IC50 doxorubicin alone / IC50 doxorubicin in presence of modifier)” value [1] was 1.1, the IC50 [2] was 27 µM and the IC50 [3] was 40 µM.

Reference: patent US5104858A, “Sensitizing multidrug resistant cells to antitumor agents” (priority 1988, dated 1992)
